Here are results for 11 compounds from patent US9221831B2, “Buprenorphine analogs” (dated 2015).

Assay [1] concerns the target T1, human opioid receptor-like (ORL-1) (Homo sapiens (Human), UniProt P41146). Briefly: ORL-1 receptor binding assay ([3H]-nociceptin).
The target in assay [2] is μ-opioid receptor (Homo sapiens (Human), UniProt P35372). The experiment in a line: μ-opioid receptor functional assay ([35S]GTPγS). The settings on record: [35S]GTPγS functional assay. (GTPγS is a poorly hydrolysed GTP analogue; its binding reports G protein activation.)
The target in assay [3] is κ opioid receptor (Homo sapiens (Human), UniProt P41145). The experiment in a line: κ-opioid receptor functional assay ([35S]GTPγS). The note with it: [35S]GTPγS functional assay.
The target in assay [4] is T2, δ opioid receptor (Homo sapiens (Human), UniProt P41143). Briefly: δ-opioid receptor functional assay ([35S]GTPγS). The note with it: [35S]GTPγS functional assay.
Assay [5] addresses T2, δ opioid receptor. Briefly: δ-opioid receptor binding assay ([3H]-Naltrindole dose-displacement).
For assay [6], the target named is T1, human opioid receptor-like (ORL-1). The experiment in a line: ORL-1 receptor functional assay ([35S]GTPγS). The settings on record: [35S]GTPγS functional assay.

Take `CO[C@]12CC[C@@]3(C[C@@H]1COCc1ccccc1)[C@H]1Cc4ccc(Br)c5c4[C@@]3(CCN1CC1CC1)[C@H]2O5`: the “Binding Affinity, ORL-1” value in assay [1] is listed as “Inactive”. Further, in assay [2], the “GTPγS Opioid Receptor μ Emax” value stood at 19.67%. The “GTPγS Opioid Receptor κ Emax” value in assay [3] amounted to 88.33%. Further, in assay [4], the “GTPγS Opioid Receptor δ Emax” value came out at 80.00%.
For `COc1ccc2c3c1O[C@H]1[C@@]4(OC)CC[C@@]5(C[C@@H]4CNCC(=O)O)[C@@H](C2)N(CC2CC2)CC[C@]315`, the “Binding Affinity, ORL-1” value in assay [1] was “Inactive”. In addition, the “GTPγS Opioid Receptor μ Emax” value in assay [2] turned out to be 31.33%. Besides, the “GTPγS Opioid Receptor κ Emax” value in assay [3] came out at 60.00%. For the same compound, the “Binding Affinity, Opioid Receptor δ” value in assay [5] is reported as “Inactive”.
Take `COc1ccc2c3c1O[C@H]1[C@@]4(OC)CC[C@@]5(C[C@@H]4COCc4ccc(C(O)CO)cc4)[C@@H](C2)N(CC2CC2)CC[C@]315` (some centres unmarked): the “Binding Affinity, ORL-1” value in assay [1] is reported as “Inactive”. Also, the “GTPγS Opioid Receptor μ Emax” value in assay [2] came to 25.00%. Further, in assay [3], the “GTPγS Opioid Receptor κ Emax” value worked out at 72.33%. In addition, the “GTPγS Opioid Receptor δ Emax” value in assay [4] was found to be 73.33%.
As for `CO[C@]12CC[C@@]3(C[C@@H]1COCc1ccccc1)[C@H]1Cc4ccc(NC(C)=O)c5c4[C@@]3(CCN1C)[C@H]2O5`, the “GTPγS ORL-1 Emax” value in assay [6] is on record as 105.00%. Also, the “GTPγS Opioid Receptor μ Emax” value in assay [2] is 87.67%. Further, the “GTPγS Opioid Receptor κ Emax” value in assay [3] was determined as 76.00%.
`COc1ccc2c3c1O[C@H]1[C@@]4(OC)CC[C@@]5(C[C@@H]4COCc4cccc(NCC(=O)O)c4)[C@@H](C2)N(CC2CC2)CC[C@]315`: the “GTPγS Opioid Receptor μ EC50” value in assay [2] is listed as “Inactive”. Moreover, the “GTPγS Opioid Receptor κ Emax” value in assay [3] came out at 79.67%. In addition, in assay [4], the “GTPγS Opioid Receptor δ Emax” value came to 82.00%.
As for `COc1ccc2c3c1O[C@H]1[C@@]4(OC)CC[C@@]5(C[C@@H]4CSc4nc(C)ns4)[C@@H](C2)N(CC2CC2)CC[C@]315`, in assay [1], the “Binding Affinity, ORL-1” value is “Inactive”. Besides, in assay [2], the “GTPγS Opioid Receptor μ EC50” value is listed as “Inactive”. Besides, the “GTPγS Opioid Receptor κ Emax” value in assay [3] was 66.33%. Moreover, the “GTPγS Opioid Receptor δ Emax” value in assay [4] was found to be 57.67%.
In the case of `COc1ccc2c3c1O[C@H]1[C@@]4(OC)CC[C@@]5(C[C@@H]4CSc4nc6ccccc6s4)[C@@H](C2)N(C)CC[C@]315`, the “Binding Affinity, ORL-1” value in assay [1] was “Partial”. Besides, the “GTPγS Opioid Receptor μ Emax” value in assay [2] is recorded as 101.33%. Moreover, in assay [3], the “GTPγS Opioid Receptor κ Emax” value is 89.00%. Also, the “GTPγS Opioid Receptor δ Emax” value in assay [4] worked out at 106.67%.
Consider `COc1ccc2c3c1O[C@H]1[C@@]4(OC)CC[C@@]5(C[C@@H]4COCc4ccc(OCC(=O)O)cc4)[C@@H](C2)N(CC2CC2)CC[C@]315`, for which, in assay [1], the “Binding Affinity, ORL-1” value is given as “Inactive”. For the same compound, in assay [2], the “GTPγS Opioid Receptor μ EC50” value is reported as “Inactive”. In addition, the “GTPγS Opioid Receptor κ Emax” value in assay [3] is given as 85.33%. Moreover, in assay [4], the “GTPγS Opioid Receptor δ Emax” value came out at 87.00%.
`COc1ccc2c3c1O[C@H]1[C@@]4(OC)CC[C@@]5(C[C@@H]4CSc4nc6ccccc6s4)[C@@H](C2)N(CC2CC2)CC[C@]315`: the “Binding Affinity, ORL-1” value in assay [1] is “Inactive”. In assay [2], the “GTPγS Opioid Receptor μ EC50” value is on record as “Inactive”. In addition, the “GTPγS Opioid Receptor κ Emax” value in assay [3] was found to be 94.00%. For the same compound, the “GTPγS Opioid Receptor δ Emax” value in assay [4] turned out to be 79.00%.
Consider `COc1ccc2c3c1O[C@H]1[C@@]4(OC)CC[C@@]5(C[C@@H]4COCc4c(C)noc4C)[C@@H](C2)N(CC2CC2)CC[C@]315`, for which the “GTPγS Opioid Receptor μ Emax” value in assay [2] was 31.75%. Further, the “GTPγS Opioid Receptor κ Emax” value in assay [3] turned out to be 92.67%. Further, the “GTPγS Opioid Receptor δ Emax” value in assay [4] was determined as 83.33%.
In the case of `COc1ccc2c3c1O[C@H]1[C@@]4(OC)CC[C@@]5(C[C@@H]4COCc4ccccc4)[C@@H](C2)N(CC(=O)O)CC[C@]315`, in assay [1], the “Binding Affinity, ORL-1” value is listed as “Inactive”. For the same compound, the “GTPγS Opioid Receptor μ Emax” value in assay [2] was 52.00%. Further, the “GTPγS Opioid Receptor κ Emax” value in assay [3] was determined as 66.67%. In addition, the “Binding Affinity, Opioid Receptor δ” value in assay [5] is reported as “Inactive”.
